Columns and labels:
[1] = biological target: Delta-type opioid receptor (Homo sapiens, UniProt P41143)
Mu-type opioid receptor = Mu-type opioid receptor (Homo sapiens, UniProt P35372)
[2] = biological target: Sigma non-opioid intracellular receptor 1 (Homo sapiens, UniProt Q99720)
[3] = biological target: Kappa-type opioid receptor (Homo sapiens, UniProt P41145)

By UniProt entry, the sequences of proteins in these tests, tags left out. Where a name states a change or a piece, a line headed by the entry shows the natural chain unless it says otherwise.
UniProt P41143, whole entry, looked up: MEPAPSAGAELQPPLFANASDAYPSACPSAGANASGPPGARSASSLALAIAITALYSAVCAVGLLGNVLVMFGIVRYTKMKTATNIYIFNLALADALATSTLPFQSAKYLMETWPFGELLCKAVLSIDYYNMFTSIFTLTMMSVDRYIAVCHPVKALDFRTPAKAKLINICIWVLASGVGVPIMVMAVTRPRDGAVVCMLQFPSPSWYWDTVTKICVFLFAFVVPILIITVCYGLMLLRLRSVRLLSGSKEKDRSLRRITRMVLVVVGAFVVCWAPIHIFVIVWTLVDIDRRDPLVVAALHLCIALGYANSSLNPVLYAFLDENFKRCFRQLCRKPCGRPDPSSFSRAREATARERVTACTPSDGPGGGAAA
UniProt P35372, whole entry, looked up: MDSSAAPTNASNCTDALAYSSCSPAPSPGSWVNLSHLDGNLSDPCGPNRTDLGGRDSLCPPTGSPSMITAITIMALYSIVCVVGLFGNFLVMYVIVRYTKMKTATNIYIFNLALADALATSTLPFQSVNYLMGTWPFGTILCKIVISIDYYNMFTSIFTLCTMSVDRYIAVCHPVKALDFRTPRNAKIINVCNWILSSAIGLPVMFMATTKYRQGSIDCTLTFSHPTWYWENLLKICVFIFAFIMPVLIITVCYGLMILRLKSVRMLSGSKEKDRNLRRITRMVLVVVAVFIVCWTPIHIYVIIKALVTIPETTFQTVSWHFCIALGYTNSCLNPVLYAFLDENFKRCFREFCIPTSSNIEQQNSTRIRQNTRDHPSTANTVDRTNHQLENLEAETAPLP
UniProt Q99720, whole entry, looked up: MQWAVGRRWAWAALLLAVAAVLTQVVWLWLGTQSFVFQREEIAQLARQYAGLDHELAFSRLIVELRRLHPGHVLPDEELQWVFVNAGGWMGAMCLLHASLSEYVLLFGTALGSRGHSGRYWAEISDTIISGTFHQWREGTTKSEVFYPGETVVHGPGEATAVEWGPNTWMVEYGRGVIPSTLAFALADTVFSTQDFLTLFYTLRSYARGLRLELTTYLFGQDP
UniProt P41145: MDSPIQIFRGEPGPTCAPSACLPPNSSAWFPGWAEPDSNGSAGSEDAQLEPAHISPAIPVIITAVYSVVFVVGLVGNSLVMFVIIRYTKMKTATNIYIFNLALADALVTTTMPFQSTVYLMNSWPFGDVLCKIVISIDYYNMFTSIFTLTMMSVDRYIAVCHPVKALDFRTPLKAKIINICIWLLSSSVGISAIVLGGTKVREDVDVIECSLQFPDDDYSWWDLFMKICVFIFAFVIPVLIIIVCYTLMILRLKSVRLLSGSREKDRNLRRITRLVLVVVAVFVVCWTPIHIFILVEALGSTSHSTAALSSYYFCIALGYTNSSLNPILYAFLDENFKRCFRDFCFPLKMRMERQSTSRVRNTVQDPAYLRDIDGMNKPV

Compound	Ki [1]	Ki (Mu-type opioid receptor)	Ki [2]	Ki [3]
CN(C(=O)Cc1ccc(Cl)c(Cl)c1)C1CCCCC1N1CCCC1 (centres undefined)	21 µM	0.825 µM	0.696 µM	
COc1cccc2c1CC[C@H](N1CCCC1)[C@H]2N(C)C(=O)Cc1ccc(Cl)c(Cl)c1	2.09 µM	0.304 µM		0.006 µM
CN(C(=O)Cc1ccc(Cl)c(Cl)c1)[C@H]1c2ccccc2CC[C@@H]1N1CCCC1	10 µM	0.545 µM		0.01 µM
